From PMC5974032

By UniProt entry, the sequences of proteins in these tests, tags left out. Residues count along the entry.
UniProt P02745, 23-245: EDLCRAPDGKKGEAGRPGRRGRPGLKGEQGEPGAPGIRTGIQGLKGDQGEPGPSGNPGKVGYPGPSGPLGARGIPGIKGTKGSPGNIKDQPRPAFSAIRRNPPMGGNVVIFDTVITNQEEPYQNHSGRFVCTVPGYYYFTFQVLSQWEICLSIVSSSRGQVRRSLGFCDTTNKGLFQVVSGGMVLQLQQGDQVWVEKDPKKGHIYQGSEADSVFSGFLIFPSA
C1q purified from human serum, UniProt P02746, 28-253: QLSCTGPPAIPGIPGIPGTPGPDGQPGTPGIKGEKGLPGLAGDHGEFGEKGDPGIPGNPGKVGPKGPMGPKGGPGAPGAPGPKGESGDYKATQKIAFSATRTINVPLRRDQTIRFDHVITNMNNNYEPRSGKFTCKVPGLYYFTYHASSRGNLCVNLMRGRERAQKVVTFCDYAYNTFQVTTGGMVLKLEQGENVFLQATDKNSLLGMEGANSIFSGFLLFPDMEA
C1q purified from human serum, UniProt P02747, 29-245: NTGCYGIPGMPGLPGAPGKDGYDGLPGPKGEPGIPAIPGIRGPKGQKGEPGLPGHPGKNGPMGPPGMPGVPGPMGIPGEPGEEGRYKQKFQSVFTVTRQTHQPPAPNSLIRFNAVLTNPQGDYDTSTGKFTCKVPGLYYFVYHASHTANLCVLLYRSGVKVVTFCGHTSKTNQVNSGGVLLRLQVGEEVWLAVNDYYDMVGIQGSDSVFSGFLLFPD

Biological target: O10 IgG1_CH2-3 (mouse)
Assay: ELISA; plates coated with BSA conjugated with B-trisaccharide, O10 muteins captured from cell culture media (3 µg/ml), then 2 µg/ml C1q purified from human serum, detected with HRP-labeled anti-human C1q; signal normalized to bound antibody; room temperature

- C1q binding relative to native IgG3 (normalized to bound antibody): 12%
Substance: C1q purified from human serum (from UniProt P02745 23-245; P02746 28-253; P02747 29-245) (complex)
